Measured values published in patent US20160158382A1, “AGENT FOR THE TREATMENT AND PREVENTION OF SLEEP DISORDERS” (published 2016).

Test system: mature outbred male white rats
Experiment: Sedative-hypnotic activity: EEG analysis of sleep-wake cycle stages in freely moving rats
Details: for Reduction in the number of wakefulness episodes compared to control / Number of episodes, fast-wave sleep / Number of episodes, wakefulness / Number of episodes, slow-wave sleep: 5-hour registration; for Theta-rhythm synchronization and modulation in the electrograms of sensorimotor cortex and dorsal hippocampus in the fast-wave (paradoxical) sleep phase: FIG. 2; for Number of episodes, fast-wave sleep / Number of episodes, wakefulness / Number of episodes, slow-wave sleep / Ratio between the duration of fast-wave sleep and the duration of total recording period / Duration, fast-wave sleep / Ratio between the duration of wakefulness and the duration of total recording period / Ratio between the duration of slow-wave sleep and the duration of total recording period / Duration, wakefulness / Duration, slow-wave sleep / Latency, slow-wave sleep / Latency, fast-wave sleep: intraperitoneal; for Number of episodes, fast-wave sleep / Number of episodes, wakefulness / Number of episodes, slow-wave sleep / Ratio between the duration of fast-wave sleep and the duration of total recording period / Duration, fast-wave sleep / Ratio between the duration of wakefulness and the duration of total recording period / Ratio between the duration of slow-wave sleep and the duration of total recording period / Duration, wakefulness / Duration, slow-wave sleep: N = 7, agent 2 mg/kg; for Number of episodes, fast-wave sleep: control 14.7 ± 1.59; for Number of episodes, wakefulness: control 38.7 ± 1.46; for Number of episodes, slow-wave sleep: control 39.3 ± 1.46; for Ratio between the duration of fast-wave sleep and the duration of total recording period: control 4.9 ± 0.78; for Duration, fast-wave sleep: control 16.6 ± 2.78; for Ratio between the duration of wakefulness and the duration of total recording period: control 33.2 ± 2.73; for Ratio between the duration of slow-wave sleep and the duration of total recording period: control 61.6 ± 2.49; for Duration, wakefulness: control 111.5 ± 9.58; for Duration, slow-wave sleep: control 206.3 ± 7.47; for Latency, slow-wave sleep / Latency, fast-wave sleep: n = 7, agent 2 mg/kg; for Latency, slow-wave sleep: control 17.0 ± 2.4, time from start of EEG registration to first episode; for Latency, fast-wave sleep: control 69.0 ± 4.44, time from start of EEG registration to first episode
[1] = agent 2 mg/kg, glycine 10 mg/kg, Donormyl 15 mg/kg
[2] = 5-hr. registration, agent 2 mg/kg, glycine 10 mg/kg, Donormyl 15 mg/kg
[3] = glycine 10 mg/kg, Donormyl 15 mg/kg
[4] = glycine 10 mg/kg, Donormyl 15 mg/kg, 5-hr. registration

| Structure (SMILES) | Reduction in the number of wakefulness episodes compared to control [1] [%] | Effect on the percentage of fast-wave sleep compared to control (in words) [2] | Effect on the percentage of wakefulness compared to control (in words) [2] | Theta-rhythm synchronization and modulation in the electrograms of sensorimotor cortex and dorsal hippocampus in the fast-wave (paradoxical) sleep phase | Effect on fast-wave sleep onset latency compared to control (in words) [3] | Effect on slow-wave sleep onset latency compared to control (in words) [3] | Effect on the fast-wave sleep duration compared to control (in words) [3] | Effect on the number of fast-wave sleep episodes compared to control (in words) [4] | Number of episodes, fast-wave sleep [3] | Number of episodes, wakefulness [3] | Number of episodes, slow-wave sleep [3] | Ratio between the duration of fast-wave sleep and the duration of total recording period [3] [%] | Duration, fast-wave sleep [3] [min] | Ratio between the duration of wakefulness and the duration of total recording period [3] [%] | Ratio between the duration of slow-wave sleep and the duration of total recording period [3] [%] | Duration, wakefulness [3] [min] | Duration, slow-wave sleep [3] [min] | Latency, slow-wave sleep [3] [min] | Latency, fast-wave sleep [3] [min] | also measured |
| --- | --- | --- | --- | --- | --- | --- | --- | --- | --- | --- | --- | --- | --- | --- | --- | --- | --- | --- | --- | --- |
| NCC(=O)O | 26 | trend towards an increase | statistically significant reduction | did not enhance | did not show a statistically significant reduction | did not show a statistically significant reduction | trend towards an increase | had no effect | 15.2 ± 2.55 | 29 · | 32.3 ± 2.50 | 6.1 ± 0.94 | 19.8 ± 3.11 | 28.7 ± 1.73 | 65.2 ± 1.52 | 92.5 ± 5.54 | 210.4 ± 5.73 | 14.1 ± 2.39 | 65.3 ± 15.63 | Effect on the duration of wakefulness compared to control (in words) (glycine 10 mg/kg): decreased; Effect on the number of slow-wave sleep episodes compared to control (in words) (glycine 10 mg/kg): trend towards a reduction |
| CN(C)CCOC(C)(c1ccccc1)c1ccccn1 (centres unmarked) | 22 | trend towards an increase | statistically significant reduction | did not enhance | trend toward some increase | did not change | trend towards an increase | had no effect | 12.0 ± 1.98 | 30.2 · | 31.7 · | 6.3 ± 1.16 | 20.1 ± 3.63 | 26.1 ± 4.39 | 67.5 ± 3.62 | 85.0 ± 11.87 | 216.6 ± 6.83 | 19.3 ± 7.41 | 96.3 ± 17.55 | Reduction of the duration of wakefulness compared to control (5-hr. registration, agent 2 mg/kg, Donormyl 15 mg/kg): 24%; Effect on the duration of slow-wave sleep compared to control (in words) (Donormyl 15 mg/kg): trend towards an increase; Effect on the percentage of slow-wave sleep compared to control (in words) (Donormyl 15 mg/kg): trend towards an increase; Reduction in the slow-wave sleep episodes compared to control (Donormyl 15 mg/kg, 5-hr. registration): 19% |
